Measured values as given in ChEMBL document CHEMBL1153816, “Novel N-substituted 4-hydrazino piperidine derivative as a dipeptidyl peptidase IV inhibitor” (Bioorg Med Chem Lett, 2009).

By UniProt entry, the sequences of proteins in these tests, tags left out. Where a name states a change or a piece, a line headed by the entry shows the natural chain unless it says otherwise.
UniProt P22411: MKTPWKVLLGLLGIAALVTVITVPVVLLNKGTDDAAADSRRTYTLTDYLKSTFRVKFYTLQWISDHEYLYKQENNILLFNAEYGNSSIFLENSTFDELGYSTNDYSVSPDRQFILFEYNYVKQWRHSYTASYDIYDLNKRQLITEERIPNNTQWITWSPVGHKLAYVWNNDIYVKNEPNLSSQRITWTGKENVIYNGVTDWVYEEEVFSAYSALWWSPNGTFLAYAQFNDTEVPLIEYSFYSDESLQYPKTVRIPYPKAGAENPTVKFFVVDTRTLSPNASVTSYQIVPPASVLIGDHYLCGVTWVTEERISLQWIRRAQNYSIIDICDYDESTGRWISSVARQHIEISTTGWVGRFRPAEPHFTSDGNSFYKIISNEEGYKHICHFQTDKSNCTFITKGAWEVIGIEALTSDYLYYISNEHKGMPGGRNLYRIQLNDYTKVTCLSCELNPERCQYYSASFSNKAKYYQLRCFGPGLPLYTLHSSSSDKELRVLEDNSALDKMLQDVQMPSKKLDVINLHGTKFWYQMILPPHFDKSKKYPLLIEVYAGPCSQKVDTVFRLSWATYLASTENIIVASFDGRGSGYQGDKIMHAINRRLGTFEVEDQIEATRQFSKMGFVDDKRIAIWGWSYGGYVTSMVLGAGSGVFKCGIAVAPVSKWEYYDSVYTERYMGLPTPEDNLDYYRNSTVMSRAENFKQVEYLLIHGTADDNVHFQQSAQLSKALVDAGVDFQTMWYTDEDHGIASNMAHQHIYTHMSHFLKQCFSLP

The compounds below were run against Dipeptidyl peptidase 4 (Sus scrofa, UniProt P22411) (assay: Inhibition of pig kidney DPP4 by spectrophotometric method).

Row | SMILES | IC50 [nM]
1 | N#C[C@@H]1CSCN1C(=O)CN(N)C1CCN(C(=O)Cc2cccnc2)CC1 | 667
2 | N#C[C@H]1CSCN1C(=O)CN(N)C1CCN(CC(=O)Nc2ccc(Cl)cn2)CC1 | 4050
3 | N#C[C@@H]1CSCN1C(=O)CN(N)C1CCN(CC(N)=O)CC1 | 817
4 | N#Cc1ccc(CN2CCC(N(N)CC(=O)N3CSC[C@H]3C#N)CC2)cc1 | 710
5 | N#C[C@@H]1CSCN1C(=O)CN(N)C1CCN(CC(=O)NCCc2cccs2)CC1 | 415

Next, values leading:

Row | IC50 [nM] | SMILES
6 | 124 | N#C[C@@H]1CSCN1C(=O)CN(N)C1CCN(CC(=O)Nc2cccnc2Cl)CC1 [listing 1 of 2 here]
7 | 258 | N#C[C@@H]1CSCN1C(=O)CN(N)C1CCN(CC(=O)Nc2ccc(Cl)cc2)CC1
8 | 119 | N#C[C@@H]1CSCN1C(=O)CN(N)C1CCN(CC(=O)Nc2cccnc2Cl)CC1 [listing 2 of 2 here]
9 | 222 | N#C[C@@H]1CSCN1C(=O)CN(N)C1CCN(CC(=O)Nc2ccc3c(c2)OCCO3)CC1

The compounds below were run against T1, Prolyl endopeptidase (Homo sapiens, UniProt P48147) (assay: Inhibition of PEP).
T1 sequence (P48147 whole entry): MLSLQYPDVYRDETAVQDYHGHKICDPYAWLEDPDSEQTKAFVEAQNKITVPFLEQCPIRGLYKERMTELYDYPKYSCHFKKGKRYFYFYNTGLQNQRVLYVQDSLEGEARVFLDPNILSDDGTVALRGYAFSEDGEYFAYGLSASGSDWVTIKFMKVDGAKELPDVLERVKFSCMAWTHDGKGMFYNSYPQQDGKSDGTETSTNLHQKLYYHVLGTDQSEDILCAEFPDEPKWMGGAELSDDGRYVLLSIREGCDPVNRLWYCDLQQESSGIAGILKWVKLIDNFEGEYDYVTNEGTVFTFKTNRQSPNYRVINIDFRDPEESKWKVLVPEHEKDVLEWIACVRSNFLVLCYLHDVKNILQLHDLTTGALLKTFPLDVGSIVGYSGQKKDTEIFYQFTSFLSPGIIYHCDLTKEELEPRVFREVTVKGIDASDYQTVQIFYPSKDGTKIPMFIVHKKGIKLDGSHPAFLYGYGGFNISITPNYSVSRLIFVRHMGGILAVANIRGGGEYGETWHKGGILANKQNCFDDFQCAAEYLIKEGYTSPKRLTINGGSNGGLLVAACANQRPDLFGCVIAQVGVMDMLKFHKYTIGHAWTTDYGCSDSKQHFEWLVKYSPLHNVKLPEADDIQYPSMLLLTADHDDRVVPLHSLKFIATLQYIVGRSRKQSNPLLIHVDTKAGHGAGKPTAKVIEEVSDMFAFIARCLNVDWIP

Row | IC50 [nM] | SMILES
10 | > 10000 | N#C[C@@H]1CSCN1C(=O)CN(N)C1CCN(CC(=O)Nc2ccc(Cl)cn2)CC1

What follows are compounds tested against Dipeptidyl peptidase 2 (Homo sapiens, UniProt Q9UHL4) (assay: Inhibition of DPP2).

Row | IC50 [nM] | SMILES
11 | > 10000 | N#C[C@@H]1CSCN1C(=O)CN(N)C1CCN(CC(=O)Nc2ccc(Cl)cn2)CC1
